Data reported in patent publication US11691963B2, “6-heteroaryloxy benzimidazoles and azabenzimidazoles as JAK2 inhibitors” (Ajax Therapeutics, Inc., priority 2020, dated 2023).

Amino acid sequences for entries named in this document (tags omitted). Residues count along the entry.
UniProt O60674, 849-1124 Y1007F/Y1008F: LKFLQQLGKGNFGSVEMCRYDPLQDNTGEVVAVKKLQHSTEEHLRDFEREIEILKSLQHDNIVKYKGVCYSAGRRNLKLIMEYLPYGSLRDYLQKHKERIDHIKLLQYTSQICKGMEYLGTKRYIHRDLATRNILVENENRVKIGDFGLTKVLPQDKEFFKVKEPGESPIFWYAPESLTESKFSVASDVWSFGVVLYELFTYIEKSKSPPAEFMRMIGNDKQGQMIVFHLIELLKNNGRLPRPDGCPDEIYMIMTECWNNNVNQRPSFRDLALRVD

target: JAK2 (JH1domain-catalytic, Y1007F,Y1008F) kinase (Homo sapiens (Human), UniProt O60674, Y1007F/Y1008F); conditions: read-out: JAK2 Kd; JAK2 JH1 domain-catalytic, Y1007F,Y1008F; qPCR readout

| Kd [µM] | SMILES |
| --- | --- |
| < 0.01 | Cn1c(Nc2cc(C(F)(F)C(F)(F)F)n([C@H]3CCOC3)n2)nc2ncc(Oc3ccnc(NC(=O)C4CC4)c3)cc21 [Example I-134, (S)—N-(4-((1-methyl-2-((5-(perfluoroethyl)-1-(tetrahydrofuran-3-yl)-1H-pyrazol-3-yl)amino)-1H-imidazo[4,5-b]pyridin-6-yl)oxy)pyridin-2-yl)cyclopropanecarboxamide] |
| < 0.01 | Cn1c(Nc2cc(C(C)(C)C)n(CCC#N)n2)nc2ncc(Oc3ccnc(NC(=O)C4CC4)c3)cc21 [Example I-137, N-(4-((2-((5-(tert-butyl)-1-(2-cyanoethyl)-1H-pyrazol-3-yl)amino)-1-methyl-1H-imidazo[4,5-b]pyridin-6-yl)oxy)pyridin-2-yl)cyclopropanecarboxamide] |
| < 0.01 | CC(=O)Nc1cc(Oc2cnc3nc(Nc4nn([C@@H]5CCOC5)c(C(C)(C)C)c4F)n(C)c3c2)ccn1 [Example I-138, (R)—N-(4-((2-((5-(tert-butyl)-4-fluoro-1-(tetrahydrofuran-3-yl)-1H-pyrazol-3-yl)amino)-1-methyl-1H-imidazo[4,5-b]pyridin-6-yl)oxy)pyridin-2-yl)acetamide] |
| < 0.01 | CC(=O)Nc1cc(Oc2cnc3nc(Nc4nn([C@H]5CCOC5)c(C(C)(C)C)c4F)n(C)c3c2)ccn1 [Example I-139, (S)—N-(4-((2-((5-(tert-butyl)-4-fluoro-1-(tetrahydrofuran-3-yl)-1H-pyrazol-3-yl)amino)-1-methyl-1H-imidazo[4,5-b]pyridin-6-yl)oxy)pyridin-2-yl)acetamide] |
| < 0.01 | Cn1c(Nc2cc(C(C)(C)C)n(CC#N)n2)nc2ncc(Oc3ccnc(NC(=O)C4CC4)c3)cc21 [Example I-140, N-(4-((2-((5-(tert-butyl)-1-(cyanomethyl)-1H-pyrazol-3-yl)amino)-1-methyl-1H-imidazo[4,5-b]pyridin-6-yl)oxy)pyridin-2-yl)cyclopropanecarboxamide] |
| < 0.01 | CC(=O)Nc1cc(Oc2cnc3nc(Nc4cc(C(C)(C)C)n([C@@H]5CCOC5)n4)n(C)c3c2Cl)ccn1 [Example I-141, (R)—N-(4-((2-((5-(tert-butyl)-1-(tetrahydrofuran-3-yl)-1H-pyrazol-3-yl)amino)-7-chloro-1-methyl-1H-imidazo[4,5-b]pyridin-6-yl)oxy)pyridin-2-yl)acetamide] |
| < 0.01 | CC(=O)Nc1cc(Oc2cnc3nc(Nc4cc(C(C)(C)C)n([C@H]5CCOC5)n4)n(C)c3c2Cl)ccn1 [Example I-142, (S)—N-(4-((2-((5-(tert-butyl)-1-(tetrahydrofuran-3-yl)-1H-pyrazol-3-yl)amino)-7-chloro-1-methyl-1H-imidazo[4,5-b]pyridin-6-yl)oxy)pyridin-2-yl)acetamide] |
| < 0.01 | CC(=O)Nc1cc(Oc2cnc3nc(Nc4cc(C(F)(F)C(F)(F)F)n([C@@H]5CCOC5)n4)n(C)c3c2Cl)ccn1 [Example I-145, (R)—N-(4-((7-chloro-1-methyl-2-((5-(perfluoroethyl)-1-(tetrahydrofuran-3-yl)-1H-pyrazol-3-yl)amino)-1H-imidazo[4,5-b]pyridin-6-yl)oxy)pyridin-2-yl)acetamide] |
| < 0.01 | CC(=O)Nc1cc(Oc2cnc3nc(Nc4cc(C(F)(F)C(F)(F)F)n([C@H]5CCOC5)n4)n(C)c3c2Cl)ccn1 [Example I-146, (S)—N-(4-((7-chloro-1-methyl-2-((5-(perfluoroethyl)-1-(tetrahydrofuran-3-yl)-1H-pyrazol-3-yl)amino)-1H-imidazo[4,5-b]pyridin-6-yl)oxy)pyridin-2-yl)acetamide] |
| < 0.01 | CC(=O)Nc1cc(Oc2cnc3nc(Nc4cc(C(C)(C)C)n([C@@H]5CCOC5)n4)n(C)c3c2C(F)F)ccn1 [Example I-147, (R)—N-(4-((2-((5-(tert-butyl)-1-(tetrahydrofuran-3-yl)-1H-pyrazol-3-yl)amino)-7-(difluoromethyl)-1-methyl-1H-imidazo[4,5-b]pyridin-6-yl)oxy)pyridin-2-yl)acetamide] |
| < 0.01 | CC(=O)Nc1cc(Oc2cnc3nc(Nc4cc(C(C)(C)C#N)n([C@H]5CCOC5)n4)n(C)c3c2Cl)ccn1 [Example I-149, (S)—N-(4-((7-chloro-2-((5-(2-cyanopropan-2-yl)-1-(tetrahydrofuran-3-yl)-1H-pyrazol-3-yl)amino)-1-methyl-1H-imidazo[4,5-b]pyridin-6-yl)oxy)pyridin-2-yl)acetamide] |
| < 0.01 | CO[C@H]1C[C@H](n2nc(Nc3nc4ncc(Oc5ccnc(NC(C)=O)c5)c(Cl)c4n3C)cc2C(F)(F)C(F)(F)F)C1 [Example I-150, trans-N-(4-((7-chloro-2-((1-(3-methoxycyclobutyl)-5-(perfluoroethyl)-1H-pyrazol-3-yl)amino)-1-methyl-1H-imidazo[4,5-b]pyridin-6-yl)oxy)pyridin-2-yl)acetamide] |
| < 0.01 | Cn1c(Nc2nn([C@@H]3CCOC3)c(C(C)(C)C)c2F)nc2ncc(Oc3ccnc(NC(=O)C4CC4)c3)cc21 [Example I-151, (R)—N-(4-((2-((5-(tert-butyl)-4-fluoro-1-(tetrahydrofuran-3-yl)-1H-pyrazol-3-yl)amino)-1-methyl-1H-imidazo[4,5-b]pyridin-6-yl)oxy)pyridin-2-yl)cyclopropane-carboxamide] |
| < 0.01 | Cn1c(Nc2nn([C@H]3CCOC3)c(C(C)(C)C)c2F)nc2ncc(Oc3ccnc(NC(=O)C4CC4)c3)cc21 [Example I-152, (S)—N-(4-((2-((5-(tert-butyl)-4-fluoro-1-(tetrahydrofuran-3-yl)-1H-pyrazol-3-yl)amino)-1-methyl-1H-imidazo[4,5-b]pyridin-6-yl)oxy)pyridin-2-yl)cyclopropanecarboxamide] |
| < 0.01 | CC(=O)Nc1cc(Oc2cnc3nc(Nc4cc(C(C)(C)C)n([C@H]5CCOC5)n4)n(C)c3c2C(F)F)ccn1 [Example I-153, (S)—N-(4-((2-((5-(tert-butyl)-1-(tetrahydrofuran-3-yl)-1H-pyrazol-3-yl)amino)-7-(difluoromethyl)-1-methyl-1H-imidazo[4,5-b]pyridin-6-yl)oxy)pyridin-2-yl)acetamide] |
| < 0.01 | CCc1c(Oc2ccnc(NC(C)=O)c2)cnc2nc(Nc3cc(C(C)(C)C#N)n([C@H]4CCOC4)n3)n(C)c12 [Example I-154, (S)—N-(4-((2-((5-(2-cyanopropan-2-yl)-1-(tetrahydrofuran-3-yl)-1H-pyrazol-3-yl)amino)-7-ethyl-1-methyl-1H-imidazo[4,5-b]pyridin-6-yl)oxy)pyridin-2-yl)acetamide] |
| < 0.01 | COc1c(Oc2ccnc(NC(C)=O)c2)cnc2nc(Nc3cc(C(C)(C)C)n([C@@H]4CCOC4)n3)n(C)c12 [Example I-155, (R)—N-(4-((2-((5-(tert-butyl)-1-(tetrahydrofuran-3-yl)-1H-pyrazol-3-yl)amino)-7-methoxy-1-methyl-1H-imidazo[4,5-b]pyridin-6-yl)oxy)pyridin-2-yl)acetamide] |
| < 0.01 | COc1c(Oc2ccnc(NC(C)=O)c2)cnc2nc(Nc3cc(C(C)(C)C)n([C@H]4CCOC4)n3)n(C)c12 [Example I-156, (S)—N-(4-((2-((5-(tert-butyl)-1-(tetrahydrofuran-3-yl)-1H-pyrazol-3-yl)amino)-7-methoxy-1-methyl-1H-imidazo[4,5-b]pyridin-6-yl)oxy)pyridin-2-yl)acetamide] |
| < 0.01 | CC(=O)Nc1cc(Oc2cnc3nc(Nc4cc(C(C)(C)C#N)n([C@@H]5CCOC5)n4)n(C)c3c2Cl)ccn1 [Example I-157, (R)—N-(4-((7-chloro-2-((5-(2-cyanopropan-2-yl)-1-(tetrahydrofuran-3-yl)-1H-pyrazol-3-yl)amino)-1-methyl-1H-imidazo[4,5-b]pyridin-6-yl)oxy)pyridin-2-yl)acetamide] |
| < 0.01 | CCc1c(Oc2ccnc(NC(C)=O)c2)cnc2nc(Nc3cc(C(C)(C)C#N)n([C@@H]4CCOC4)n3)n(C)c12 [Example I-158, (R)—N-(4-((2-((5-(2-cyanopropan-2-yl)-1-(tetrahydrofuran-3-yl)-1H-pyrazol-3-yl)amino)-7-ethyl-1-methyl-1H-imidazo[4,5-b]pyridin-6-yl)oxy)pyridin-2-yl)acetamide] |
| < 0.01 | CC(=O)Nc1cc(Oc2cnc3nc(Nc4cc(C(C)(C)C#N)n([C@@H]5CCOC5)n4)n(C)c3c2C(F)F)ccn1 [Example I-160, (R)—N-(4-((2-((5-(2-cyanopropan-2-yl)-1-(tetrahydrofuran-3-yl)-1H-pyrazol-3-yl)amino)-7-(difluoromethyl)-1-methyl-1H-imidazo[4,5-b]pyridin-6-yl)oxy)pyridin-2-yl)acetamide] |
| < 0.01 | CC(=O)Nc1cc(Oc2cnc3nc(Nc4cc(C(C)(C)C#N)n([C@H]5CCOC5)n4)n(C)c3c2C(F)F)ccn1 [Example I-161, (S)—N-(4-((2-((5-(2-cyanopropan-2-yl)-1-(tetrahydrofuran-3-yl)-1H-pyrazol-3-yl)amino)-7-(difluoromethyl)-1-methyl-1H-imidazo[4,5-b]pyridin-6-yl)oxy)pyridin-2-yl)acetamide] |
| < 0.01 | C[C@H](CO)Cn1nc(Nc2nc3ncc(Oc4ccnc(NC(=O)C5CC5)c4)cc3n2C)cc1C(C)(C)C [Example I-163-a, (S)—N-(4-((2-((5-(tert-butyl)-1-(3-hydroxy-2-methylpropyl)-1H-pyrazol-3-yl)amino)-1-methyl-1H-imidazo[4,5-b]pyridin-6-yl)oxy)pyridin-2-yl)cyclopropane-carboxamide] |
| < 0.01 | C[C@@H](CO)Cn1nc(Nc2nc3ncc(Oc4ccnc(NC(=O)C5CC5)c4)cc3n2C)cc1C(C)(C)C [Example I-163-b, (R)—N-(4-((2-((5-(tert-butyl)-1-(3-hydroxy-2-methylpropyl)-1H-pyrazol-3-yl)amino)-1-methyl-1H-imidazo[4,5-b]pyridin-6-yl)oxy)pyridin-2-yl)cyclopropanecarboxamide] |
| < 0.01 | Cn1c(Nc2cc(C(C)(C)C)n(C3CC4(COC4)C3)n2)nc2ncc(Oc3ccnc(NC(=O)C4CC4)c3)cc21 [Example I-164, N-(4-((2-((5-(tert-butyl)-1-(2-oxaspiro[3.3]heptan-6-yl)-1H-pyrazol-3-yl)amino)-1-methyl-1H-imidazo[4,5-b]pyridin-6-yl)oxy)pyridin-2-yl)cyclopropanecarboxamide] |
